Source: patent publication US9493663B2, “Photopolymerizable inkjet ink, ink cartridge, and printer” (RICOH COMPANY, LTD., priority 2011, dated 2016)

Experiment: skin sensitization test (LLNA, Local Lymph Node Assay, OECD test guideline 429), Stimulation Index
Assay type: in vivo
Settings: SI less than 3 judged negative
Text: The present inventor conducted extensive studies and previously found some materials safe in skin sensitization. […]
As described in literatures (for example, “Functional Material” (Kino Zairyou) 2005, September, Vol. 25, No. 9, p. 55), the compound having a Stimulation Index (SI value) of less than 3, where the Stimulation Index indicates the extent of skin sensitization, is judged as being negative for skin sensitization. Also, the compounds evaluated as “negative for skin sensitization” or “no skin sensitization” in their MSDS (Material Safety Data Sheet) and/or literatures (for example, van der Walle H B. et al., Contact Dermatitis, 1982, 8(4), 223-235) each have the above SI value which is less than 3, and therefore they are encompassed by the present invention. The lower SI value means lower skin sensitization. Thus, in the present invention, a monomer or an oligomer having lower SI value is preferably used. The SI value of the monomer or the oligomer used is preferably 2 or lower, more preferably 1.6 or lower.
The value in parentheses after each of A1 to A23 is “SI value” and the description “negative” or “none” after each of A1 to A23 means that the compound is evaluated as “negative for skin sensitization” or “no skin sensitization” in the MSDS (Material Safety Data Sheet) or literatures (for example, van der Walle H B. et al., Contact Dermatitis, 1982, 8(4), 223-235). The description “negative” or “none” is equivalent to the SI value of less than 3.

Substance | SI value (Stimulation Index)
Ethylene oxide-modified bisphenol A diacrylate [Example A10] | 1.2
Ethylene oxide-modified phenol acrylate [Example A18] | 0.7
Ethylene oxide-modified trimethylol propane trimethacrylate [Example A20] | 1.0
Glycerin dimethacrylate [Example A22] | 1.2
